Test results published in PubChem BioAssay AID1508649 (National Center for Advancing Translational Sciences (NCATS), 2021).
This is a selection; strong and weak results do not stand in their true shares. Records with an inconclusive call do not appear. Where a call stands in place of a potency, no number is given. The source made the active and inactive calls. How the source made its calls: active means clear falling dose curves in both reporters; inconclusive means both reporters move, but less clearly or upward; inactive means either reporter flat; the % is the NLuc reporter signal.

Assay: Cell-based coincidence reporter assay to measure PMP22 gene transcription in S16 Pmp22-F2sN cells - Primary screen
Settings: S16 Pmp22-F2sN Schwann cells (luciferase reporters placed in the Pmp22 gene), FLuc/NLuc coincidence luminescence, 24 h; series mostly up to 57.5 µM
Excerpt: Assay Provider: Jim Inglese Ph.D. National Center for Advancing Translational Science, National Institutes of Health, Rockville, MD CMT is a heterogeneous group of neurological disorders that affect approximately 1 in 2,500 people. In particular, the most common form of CMT, CMT1A is genetically linked to the duplication of the PMP22 gene which leads to Schwann cell overexpression, thus manifesting itself as a typical case of dose-sensitive diseases. To identify small molecule compounds that can mediate the expression of PMP22 we developed a phenotypic assay screening strategy by utilizing genome editing techniques to construct Schwann cell lines containing novel reporter technology to monitor the transcriptional or translational regulation of PMP22. For high sensitivity we use a bioluminescent reporter system embedded in the 3' UTR of the PMP22 gene (S16(c9) Pmp22-F2sN) to identify compounds that inhibit gene expression. […] We can further discriminate the effect of all transcriptionally active molecules on PMP22 translation or stability with an assay that incorporates a short NLuc peptide (HiBiT) at the C-terminus of expressed PMP22 (S16(f8) PMP22-HiBiT) allowing alpha complementation and luminescence detection of membrane-associated PMP22 protein. These assays were screened against the NCATS Sytravon Library Collection. Miniaturization of these assays to 1536-well plate format for quantitative high throughput screening (qHTS) yielded rich data sets immediately from the qHTS assay (S16(c9) Pmp22-F2sN), when compared with data from a cell viability assay (Cell TiterGlo) to identify compounds that decreased the output signals through cellular toxicity to streamline the selection process of actives for subsequent characterization using the HiBiT assay (S16(f8) PMP22-HiBiT).
Cell-based coincidence reporter assay to measure PMP22 gene transcription in S16 Pmp22-F2sN cells PROTOCOL TABLE (format as described by Inglese J, Shamu CE and Guy RK. 2007) SEQUENCE No. (e.g., 1, 2, 3, etc.); […] (e.g., Cells, Incubation, Reagent, etc.); VALUE and DESCRIPTION. 1. Cells. Add 500-1,000 cells in 4 uL in growth media (DMEM High Glucose, No Phenol Red media + 10% heat-inactivated FBS + 1% Pen/Strep supplemented media) per well into Greiner 1536-well white/solid bottom high base, TC-treated plates. 2. Compounds. Library compounds and controls added at 23nL per well, transferred by Pin Tool. 3. Incubation. Incubate plates at 37C, 5% CO2, 95% RH for 24 h. 4. Reagent. Add 3.5uL Nano-Glo Dual-Luciferase Reporter Assay System reagent 1: Lysis and FLuc reagent per well of Greiner 1536-well plates. 5. Incubation. Incubate plates at room temperature for 10 min., protect from light. 6. Detector. FLuc luminescence measured using CCD-based camera (Viewlux). 7. Reagent. Add 3.5uL Nano-Glo Dual-Luciferase Reporter Assay System reagent 2: Stop&Glo reagent per well of Greiner 1536-well plates. 8. Incubation. Incubate plates at room temperature for 10 min., protect from light. 9. Detector. NLuc luminescence measured using CCD-based camera (Viewlux). NOTES (numbers refer to Sequence numbers above; values are from representative experiments) 6. Luminescence Read #1 (FLuc): Clear filter; Exposure = 10 sec, Gain = High, Speed = Slow, Binning = 2X 9. Luminescence Read #2 (NLuc): Clear filter; Exposure = 1 sec, Gain = High, Speed = Slow, Binning = 2X REFERENCES: 1. Inglese J, Shamu CE and Guy RK, Reporting data from high throughput screening of small molecule libraries, Nature Chemical Biology, 2007, 3(8): 438-441. doi.org/10.1038/nchembio0807-438 2. Yasgar A, Shinn P, Jadhav A, Auld DS, Michael S, Zheng W, Austin CP, Inglese J and Simeonov A, Compound Management for Quantitative High-Throughput Screening. J. Assoc. Lab. Auto., 2008, 13: 79-89. doi: 10.1016/j.jala.2007.12.004
Potency means the concentration at half of the fitted maximal effect.

Row | Structure (SMILES) | Potency
1 | COc1cc(C(=O)NCC2(N3CCOCC3)CCCCC2)cc(OC)c1OC | inactive
2 | CN(C)C1(CNC(=O)c2ccc(C(C)(C)C)cc2)CCCCC1 | inactive
3 | Cc1ccccc1C(=O)NCC1(N(C)C)CCCCC1 | inactive
4 | CC(C)(C)c1ccc(C(=O)NCC2(N3CCOCC3)CCCCC2)cc1 | active: 15 µM
5 | O=C(NCC1(N2CCOCC2)CCCCC1)c1ccccc1[N+](=O)[O-] | inactive
6 | O=C(NCC1(N2CCOCC2)CCCCC1)c1ccc([N+](=O)[O-])cc1 | inactive
7 | O=C(NCC1(N2CCOCC2)CCCCC1)c1ccccc1 | inactive
8 | O=C(NCC1(N2CCOCC2)CCCCC1)c1ccccc1Br | inactive
9 | CCOc1ccc(C(=O)NCC2(N3CCOCC3)CCCCC2)cc1 | inactive
10 | CCCOc1cccc(C(=O)NCC2(N3CCOCC3)CCCCC2)c1 | inactive
